Data: US7053107B2, “Indazole compounds and pharmaceutical compositions for inhibiting protein kinases, and methods for their use” (Agouron Pharmaceuticals, Inc., priority 2002, dated 2006)

Chains of the proteins cited; added tags and fusions are not shown. A line that says so, or that is headed by a name, gives the form on record, which may keep a tag or linker. Residues count along the entry.
UniProt P11362, 456-766 L457V/C488A/C584S limits assumed: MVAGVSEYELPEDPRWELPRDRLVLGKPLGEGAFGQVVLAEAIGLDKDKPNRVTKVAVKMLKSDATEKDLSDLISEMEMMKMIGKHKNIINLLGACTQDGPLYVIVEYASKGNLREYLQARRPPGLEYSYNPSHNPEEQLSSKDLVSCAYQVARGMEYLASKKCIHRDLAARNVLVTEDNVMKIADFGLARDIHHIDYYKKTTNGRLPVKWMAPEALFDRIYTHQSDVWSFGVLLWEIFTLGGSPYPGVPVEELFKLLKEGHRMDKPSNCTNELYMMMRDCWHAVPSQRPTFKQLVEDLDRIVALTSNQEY
UniProt P09619, 33-1106 limits assumed: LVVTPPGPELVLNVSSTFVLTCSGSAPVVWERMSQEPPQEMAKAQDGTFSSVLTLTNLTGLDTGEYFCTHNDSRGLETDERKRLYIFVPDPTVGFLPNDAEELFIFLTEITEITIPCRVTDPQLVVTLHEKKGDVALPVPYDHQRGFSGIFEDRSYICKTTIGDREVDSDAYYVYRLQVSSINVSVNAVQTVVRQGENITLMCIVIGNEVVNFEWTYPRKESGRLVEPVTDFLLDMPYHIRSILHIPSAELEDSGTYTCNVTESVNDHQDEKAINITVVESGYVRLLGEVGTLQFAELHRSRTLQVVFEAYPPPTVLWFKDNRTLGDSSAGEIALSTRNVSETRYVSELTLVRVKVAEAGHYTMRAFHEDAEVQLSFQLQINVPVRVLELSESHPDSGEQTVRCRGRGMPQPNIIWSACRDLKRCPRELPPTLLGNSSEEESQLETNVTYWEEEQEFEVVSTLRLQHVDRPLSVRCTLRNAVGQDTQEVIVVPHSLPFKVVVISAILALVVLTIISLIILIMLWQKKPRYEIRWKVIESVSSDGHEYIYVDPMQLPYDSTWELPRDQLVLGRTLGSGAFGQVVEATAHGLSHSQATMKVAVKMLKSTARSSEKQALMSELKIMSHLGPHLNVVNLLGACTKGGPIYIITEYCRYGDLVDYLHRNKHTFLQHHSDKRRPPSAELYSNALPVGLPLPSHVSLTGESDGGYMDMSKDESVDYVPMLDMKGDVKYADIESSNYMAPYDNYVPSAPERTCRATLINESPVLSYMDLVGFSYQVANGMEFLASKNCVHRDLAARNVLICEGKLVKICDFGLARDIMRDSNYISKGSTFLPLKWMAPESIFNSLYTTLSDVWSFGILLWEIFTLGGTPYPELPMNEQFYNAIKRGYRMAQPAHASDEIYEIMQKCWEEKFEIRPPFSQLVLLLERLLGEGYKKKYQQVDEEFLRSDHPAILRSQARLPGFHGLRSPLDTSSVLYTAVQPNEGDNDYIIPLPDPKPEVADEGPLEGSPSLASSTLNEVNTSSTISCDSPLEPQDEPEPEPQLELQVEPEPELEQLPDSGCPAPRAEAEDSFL
UniProt P35968, with tags, fused parts or gaps DEL940-989/E990V limits assumed: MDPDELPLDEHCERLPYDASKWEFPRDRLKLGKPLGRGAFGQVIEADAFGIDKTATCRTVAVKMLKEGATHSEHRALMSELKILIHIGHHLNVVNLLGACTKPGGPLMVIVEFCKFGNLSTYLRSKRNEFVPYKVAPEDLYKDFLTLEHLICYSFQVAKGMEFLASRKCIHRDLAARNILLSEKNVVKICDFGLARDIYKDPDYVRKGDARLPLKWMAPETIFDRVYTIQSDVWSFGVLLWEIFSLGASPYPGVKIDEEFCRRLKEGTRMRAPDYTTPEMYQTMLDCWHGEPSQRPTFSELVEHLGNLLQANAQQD

Assays:
[1] = target: FGF-R1 (Homo sapiens, UniProt P11362, C488A/C584S/L457V); assay: Fibroblast Growth Factor (FGF-R) spectrophotometric assay; settings: 1 μM compound
From the text: The intracellular kinase domain of human FGF-R1 was expressed using the baculovirus vector expression system starting from the endogenous methionine residue 456 to glutamate 766, according to the residue numbering system of Mohammadi et al., Mol. Cell. Biol., 16, 977–989 (1996). In addition, the construct also has the following 3 amino acid substitutions: L457V, C488A, and C584S.
The production of ADP from ATP that accompanies phosphoryl transfer was coupled to oxidation of NADH using phosphoenolpyruvate (PEP) and a system having pyruvate kinase (PK) and lactic dehydrogenase (LDH). The oxidation of NADH was monitored by following the decrease of absorbance at 340 nm (e340=6.22 cm^−1 mM^−1) using a Beckman DU 650 spectrophotometer. Assay conditions for phosphorylated VEGF-R2A50 (indicated as FLVK-P in the tables below) were the following: 1 mM PEP; 250 μM NADH; 50 units of LDH/mL; 20 units of PK/mL; 5 mM DTT; 5.1 mM poly(E4Y1); 1 mM ATP; and 25 mM MgCl2 in 200 mM HEPES, pH 7.5. […] Ki values were determined by measuring enzyme activity in the presence of varying concentrations of test compounds. The data were analyzed using Enzyme Kinetic and Kaleidagraph software. […]

[2] = target: PDGFRβ (Homo sapiens, UniProt P09619); assay: PAE-PDGFRβ Phosphorylation in PAE-PDGFRB Cells Assay; settings: read-out: PAE PDGFR autophos IC50; PAE cells overexpressing human PDGFRβ
Description: This assay determines the ability of a test compound to inhibit the autophosphorylation of PDGFRβ in porcine aorta endothelial (PAE)-PDGFRβ cells. PAE cells that overexpress human PDGFRβ were used in this assay. The cells were cultured in Ham's F12 media supplemented with 10% fetal bovine serum (FBS) and 400 ug/ml G418. Twenty thousands cells were seeded in each well of a 96-well plate in 50 μL of growth media and allowed to attach for 6 hours at 37° C. Cells were then exposed to the starvation media (Ham's F12 media supplemented with 0.1% FBS) for 16 hours. After the starvation period was over, 10 μL of test agent in 5% DMSO in starvation media were added to the test wells and 10 μL of the vehicle (5% DMSO in starvation media) were added into the control wells. The final DMSO concentration in each well was 0.5%. Plates were incubated at 37° C. for 1 hour and the cells were then stimulated with 1 μg/mL PDGF-BB (R & D System) in the presence of 2 mM Na3VO4 for 8 minutes. The cells were washed once with 1 mm Na3VO4 in HBSS and lysed by adding 50 μL per well of lysis buffer. […] Phosphorylation status was assessed by spectrophotometer reading at 450 nm. IC50 values were calculated by curve fitting using a four-parameter analysis.

[3] = target: unphosphorylated VEGF-R2Δ50 (Homo sapiens, UniProt P35968, DEL940-989/E990V); assay: VEGF-R2 coupled spectrophotometric assay, unphosphorylated construct (FLVK); settings: % inhibition at 50 nM compound
From the text: This construct determines the ability of a test compound to inhibit tyrosine kinase activity. A construct (VEGF-R2Δ50) of the cytosolic domain of human vascular endothelial growth factor receptor 2 (VEGF-R2) lacking the 50 central residues of the 68 residues of the kinase insert domain was expressed in a baculovirus/insect cell system. Of the 1356 residues of full-length VEGF-R2, VEGF-R2Δ50 contains residues 806–939 and 990–1171, and also one point mutation (E99OV) within the kinase insert domain relative to wild-type VEGF-R2. Autophosphorylation of the purified construct was performed by incubation of the enzyme at a concentration of 4 μM in the presence of 3 mM ATP and 40 mM MgCl2 in 100 mM HEPES, pH 7.5, containing 5% glycerol and 5 mM DTT, at 4° C. for 2 h. […] See Parast et al., Biochemistry, 37,16788–16801 (1998).
The production of ADP from ATP that accompanies phosphoryl transfer was coupled to oxidation of NADH using phosphoenolpyruvate (PEP) and a system having pyruvate kinase (PK) and lactic dehydrogenase (LDH). The oxidation of NADH was monitored by following the decrease of absorbance at 340 nm (e340=6.22 cm^−1 mM^−1) using a Beckman DU 650 spectrophotometer. […] Ki values were determined by measuring enzyme activity in the presence of varying concentrations of test compounds. The data were analyzed using Enzyme Kinetic and Kaleidagraph software.

Cc1cc(C)nc(/C=C/c2n[nH]c3cc(Nc4ncccc4C(=O)NCC#CCO)ccc23)c1
FGF-P % inhibit @1 μM [1]: 56%
IC50 [2]: 0.04 µM
FLVK Ki % inh @ 50 nM [3]: 23%
